Experiments:
[1] = Reactivity test toward 3MP and DTT (2nd screening, no enzyme); conditions: 50 μM 3MP, 40 μM DTT, no 3MST, mean±S.D. n = 4
Experimental: Reactivity of the hit compounds toward 3MP and DTT was examined. The final concentration of the compounds was 10 or 50 μM. The assay protocol was as follows: compounds were diluted with HSip-1 solution to 20 or 100 μM solution (10% DMSO) with a Multi-Drop Combi. Next, 3MP and DTT solution (10 μL, final concentrations: 50 μM 3MP and 40 μM DTT) was dispensed into the plates (total volume was 20 μL, 5% DMSO), and the plates were incubated at room temperature for 3 hr. The fluorescence of HSip-1 was measured (λex = 485 nm, λem = 520 nm) with a microplate reader (PHERAstar PLUS). Background control wells (i.e., no addition wells instead of addition of 3MP and DTT, n = 16) were also prepared for all plates.
Supplementary Note 3. […]
The second screening, which is a non-enzymatic assay, was performed to eliminate false-positive hit compounds such as naphthoquinone that react with the substrates, e.g., 3MP and DTT. Even in […]
μM 3MP and 40 μM DTT. The fluorescence increase in the presence or the absence of 3MP and DTT was regarded as 100% or 0% fluorescence signal, respectively, and we evaluated the ability of each compound (10 μM and 50 μM) to inhibit the fluorescence increase caused by the reaction with 3MP and DTT. In this assay, we selected compounds showing ‒25% ≤ inhibitory activity at both 10 and 50 μM ≤ 50% (545 compounds). Then, we further selected compounds showing more than 60% inhibitory activity in the previous confirmation test among 545 compounds (146 hit compounds) (Supplementary Fig. S7). These compounds were considered not to react with 3MP and DTT, at least in this concentration range. […]

Amino acid sequences for entries named in this document (tags omitted).
UniProt Q99J99, whole entry: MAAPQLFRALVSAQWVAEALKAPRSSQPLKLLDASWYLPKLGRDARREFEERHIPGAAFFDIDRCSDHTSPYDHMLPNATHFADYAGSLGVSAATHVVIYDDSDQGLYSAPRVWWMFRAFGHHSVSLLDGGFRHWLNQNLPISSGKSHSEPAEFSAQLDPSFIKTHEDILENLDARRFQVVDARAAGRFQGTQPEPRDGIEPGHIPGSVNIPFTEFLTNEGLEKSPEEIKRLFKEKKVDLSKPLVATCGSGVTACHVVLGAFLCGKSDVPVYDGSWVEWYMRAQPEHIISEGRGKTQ

[2] = molecular target: GST-fused m3MST (GST-3MST) (Mus musculus, UniProt Q99J99); assay: 3MST inhibitor screening with H2S fluorescent probe HSip-1 (confirmation test, titration test); conditions: HSip-1 fluorescence, room temperature 3 hr; for Inhibition of 3MST, confirmation test: 10 μM compound, 50 μM 3MP, 40 μM DTT, mean±S.D. n = 4; for IC50: read-out: IC50 of 3MST inhibition (titration test), 0.25, 1, 3, 10, 30 μM compound, 3MP and DTT
[3] = Reactivity test toward H2S (3rd screening, cysteine-activated H2S donor); conditions: 40 μM H2S donor, 1 mM L-cysteine, 37 °C 60 min, mean±S.D. n = 4
Experimental: Reactivity of the hit compounds toward H2S was next examined. The final concentration of the compounds was 10 or 30 μM. The assay protocol was as follows. Compounds were diluted with HSip-1 and cysteine-activated H2S donor[22] solution to 20 or 60 μM solution (15.4% DMSO) with a Multi-Drop and a pipette. Next, 2 mM L-cysteine solution (10 μL, final concentration: 1 mM L-cysteine) was dispensed into the plates (total volume was 20 μL, DMSO 7.7%), and the plates were incubated at 37 °C for 1 hr. The fluorescence of HSip-1 was measured (λex = 490 nm, λem = 510 nm) with a microplate reader. Background control wells (i.e., no addition wells instead of addition of the cysteine-activated H2S donor, n = 16) were also prepared for all plates.
Supplementary Table S2. Inhibition (%) of fluorescence increase caused by H2S in the 3rd […]
Compound 10 µM Compound 30 µM Compound 10 µM Compound 30 µM
All data are presented as the mean±S.D. (n = 4). Conditions: Mixtures of 1 μM HSip-1, 10 or 30 μM test compound, 40 μM H2S donor, 1 mM ʟ-cysteine, and 7.7% DMSO (v/v) were incubated at 37 °C for 60 min. The control with DMSO alone instead of DMSO solution of test compound was taken as 0% inhibition, and the sample without H2S donor was taken as 100% inhibition. […]
directly react with H2S: For this assay, we synthesized a reported small-molecular H2S donorS2 that produces H2S by reacting with cysteine. Each compound (10 or 30 μM) was dissolved in a solution (30 mM HEPES buffer (pH 7.4)) containing 1 μM HSip-1, 40 μM H2S donor, 1 mM ʟ-cysteine and 7.7% (v/v) DMSO as a cosolvent, and the solution was incubated at 37 °C for 60 min. Then, the fluorescence intensities were measured to evaluate the amount of H2S in the solution (Supplementary Table S2). Based on the results of the titration test and the third screening, we […]
while compounds 6-8 appeared to react with H2S. […]

No Enzyme: inhibition of HSip-1 fluorescence increase caused by 3MP and DTT ([1]; 10 μM compound) [%] | No Enzyme: inhibition of HSip-1 fluorescence increase caused by 3MP and DTT ([1]; 50 μM compound) [%] | Inhibition of 3MST, confirmation test [2] [%] | IC50 [2] [µM] | SMILES | Inhibition (%) of fluorescence increase caused by H2S in the 3rd screening ([3]; 10 μM compound) [%] | Inhibition (%) of fluorescence increase caused by H2S in the 3rd screening ([3]; 30 μM compound) [%]
23.1±10.6 | 23.7±3.6 | 114.6±0.5 | 2.1 | Cc1cnc2c(ccc3c(C)c(C)cnc32)c1C | 91.4±1.3 | 86.6±1.0
27.8±3.8 | 14.2±1.6 | 79.6±0.3 | 9.4 | Cc1nc2ccc(N=NN(C)C)cc2[nH]1 | 95.9±0.9 | 95.0±3.8
46.3±0.5 | 42.4±3.2 | 114.5±0.7 | 0.68 | O=C1C=C(Cl)C(=O)c2c(O)cccc21 | 4.2±3.6 | 18.6±14.5
18.3±10.6 | 24.8±4.7 | 60.5±6.7 | 14.2 | CC(CNC(=O)c1ccc(C2CCN(C(=O)c3ccccn3)CC2)nc1)N1CCCCCC1 (stereo not drawn) | 41.2±7.4 | 99.1±0.9

Source: PMC5228037, “Discovery and Mechanistic Characterization of Selective Inhibitors of H2S-producing Enzyme: 3-Mercaptopyruvate Sulfurtransferase (3MST) Targeting Active-site Cysteine Persulfide” (Scientific Reports, 2017)
